These are literature values, as cited in article PMC8995271 (Targeted Oncology, 2022).

For the data set the following is noted: weekly regimen, patients with ovarian cancer; cited from earlier work.

With carboplatin and paclitaxel, the “grade 3 and above neutropenia, patients” value is recorded as 42%.
